Test results: patent US20020183309A1, “Novel amines as histamine-3 receptor ligands and their therapeutic applications” (priority 2001, published 2002)

The chains behind the UniProt entries cited, without tags or fusion partners. Where a name states a change or a piece, a line headed by the entry shows the natural chain unless it says otherwise.
UniProt Q9QYN8: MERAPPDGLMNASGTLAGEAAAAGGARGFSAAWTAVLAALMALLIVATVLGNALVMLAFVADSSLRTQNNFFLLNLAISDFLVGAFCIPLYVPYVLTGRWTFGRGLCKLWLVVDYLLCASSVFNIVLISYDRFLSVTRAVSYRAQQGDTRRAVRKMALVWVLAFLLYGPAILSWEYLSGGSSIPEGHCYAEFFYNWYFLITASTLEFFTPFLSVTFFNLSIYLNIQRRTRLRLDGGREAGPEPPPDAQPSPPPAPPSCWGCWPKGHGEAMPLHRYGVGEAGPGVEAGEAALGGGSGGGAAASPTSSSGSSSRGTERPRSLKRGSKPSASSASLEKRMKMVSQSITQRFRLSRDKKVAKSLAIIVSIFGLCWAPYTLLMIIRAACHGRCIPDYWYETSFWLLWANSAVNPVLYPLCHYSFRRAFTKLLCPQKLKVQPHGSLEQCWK

Biological target: T1, histamine-3 receptors (H3 receptor) (Rattus norvegicus, UniProt Q9QYN8)
T1 construct: from tissue; host or cells: male Sprague-Dawley rat brain cortex membranes
Experiment: (3H)-N-α-methylhistamine binding to rat cortical membranes
Experimental: Briefly, male Sprague-Dawley rat brain cortices were homogenized (1 g tissue/10 mL buffer) in 50 mM Tris-HCl/5 mM EDTA containing protease inhibitor cocktail (Calbiochem) using a polytron set at 20,500 rpm. Homogenates were centrifuged for 20 minutes at 40,000×g. The supernatant was decanted, and pellets were weighed. The pellet was resuspended by polytron homogenization in 40 mL 50 mM Tris-HCl/5 mM EDTA with protease inhibitors and centrifuged for 20 minutes at 40,000×g. […] Rat cortical membranes (12 mg wet weight/tube) were incubated with (^3H)-N-α-methylhistamine (˜0.6 nM) with or without H3 receptor antagonists in a total incubation volume of 0.5 mL of 50 mM Tris-HCl/5 mM EDTA (pH 7.7). Test compounds were dissolved in DMSO to provide a 20 mM solution, serially diluted and then added to the incubation mixtures prior to initiating the incubation assay by addition of the membranes. Thioperamide (3 μM) was used to determine nonspecific binding. Binding incubations were conducted for 30 minutes at 25° C. and terminated by addition of 2 mL of ice cold 50 mM Tris-HCl (pH 7.7) and filtration through 0.3% polyethylenimine-soaked Unifilter plates (Packard). These filters were washed 4 additional times with 2 mL of ice-cold 50 mM Tris-HCl and dried for 1 hour. Radioactivity was determined using liquid scintillation counting techniques. Results were analyzed by Hill transformation and Ki values were determined using the Cheng-Prusoff equation.

[1] = male Sprague-Dawley rat brain cortical membranes, (3H)-N-α-methylhistamine ~0.6 nM, 30 minutes at 25° C., Cheng-Prusoff equation, read-out: Ki

C[C@@H]1CCCN1CCc1cc2cc(C(=O)c3ccc(Cl)cc3)ccc2o1 [Example 72, (4-chlorophenyl)(2-{2-[(2R)-2-methyl-1-pyrrolidinyl]ethyl}-1-benzofuran-5-yl)methanone]
Ki [1]: 2.7 nM

O=C(c1ccc(-c2ccc3oc(CCN4CCCCCC4)cc3c2)cc1)N1CCOCC1 [Example 30, 4-(4-{2-[2-(azepane)ethyl]-1-benzofuran-5-yl}benzoyl)morpholine]
Ki [1]: 13.7 nM

C[C@@H]1CCCN1CCc1cc2cc(C(=O)c3cccc(F)c3)ccc2o1 [Example 69, (3-fluorophenyl)(2-{2-[(2R)-2-methyl-1-pyrrolidinyl]ethyl}-1-benzofuran-5-yl)methanone]
Ki [1]: 0.6 nM

O=C(c1ccc(-c2ccc3oc(CCN4CC[C@@H](O)C4)cc3c2)nc1)N1CCOCC1 [Example 48, (3R)-1-(2-{5-[5-(4-morpholinylcarbonyl)-2-pyridinyl]-1-benzofuran-2-yl}ethyl)-3-pyrrolidinol]
Ki [1]: 30.8 nM

Cc1ccc(C(=O)c2ccc3oc(CCN4CCC[C@H]4C)cc3c2)cc1 [Example 80, (4-methylphenyl)(2-{2-[(2R)-2-methyl-1-pyrrolidinyl]ethyl}-1-benzofuran-5-yl)methanone]
Ki [1]: 1.4 nM

C[C@@H]1CCCN1CCc1cc2cc(-c3ccc(C#N)cc3)ccc2o1 [Example 1, 4-(2-{2-[(2R)-2-methylpyrrolidinyl]ethyl}-1-benzofuran-5-yl)benzonitrile]
Ki: 4.44 nM

CC1CCCN1CCc1cc2cc(-c3ccc(C#N)cc3)ccc2o1 (stereo not drawn) [Example 3, 4-{2-[2-(2-methyl-1-pyrrolidinyl)ethyl]-1-benzofuran-5-yl}benzonitrile]
Ki: 7.45 nM

C[C@@H]1CCCN1CCc1cc2cc(C(=O)c3ccccc3F)ccc2o1 [Example 70, (2-fluorophenyl)(2-{2-[(2R)-2-methyl-1-pyrrolidinyl]ethyl}-1-benzofuran-5-yl)methanone]
Ki [1]: 2.1 nM

N#Cc1ccc(-c2ccc3oc(CCN4CCCCCC4)cc3c2)cc1 [Example 13, 4-{2-[2-(1-azepanyl)ethyl]-1-benzofuran-5-yl}benzonitrile]
Ki [1]: 78.4 nM

C[C@@H]1CCCN1CCc1cc2cc(C(=O)c3cc(F)cc(F)c3)ccc2o1 [Example 81, (3,5-difluorophenyl)(2-{2-[(2R)-2-methyl-1-pyrrolidinyl]ethyl}-1-benzofuran-5-yl)methanone]
Ki [1]: 1.4 nM

CC1CCN(CCc2cc3cc(-c4ccc(C(=O)N5CCOCC5)cc4)ccc3o2)CC1 [Example 31, 4-(4-{2-[2-(4-methyl-1-piperidinyl)ethyl]-1-benzofuran-5-yl}benzoyl)morpholine]
Ki [1]: 24.6 nM

C[C@@H]1CC[C@@H](C)N1CCc1cc2cc(-c3ccc(C(=O)N4CCOCC4)cc3)ccc2o1 [Example 28, 4-[4-(2-{2-[(2R,5R)-2,5-dimethylpyrrolidinyl]ethyl}-1-benzofuran-5-yl)benzoyl]morpholine]
Ki [1]: 9.24 nM

N#Cc1ccc(-c2ccc3oc(CCn4ccnc4)cc3c2)cc1 [Example 8, 4-{2-[2-(1H-imidazol1--yl)ethyl]-1-benzofuran-5-yl}benzonitrile]
Ki [1]: 2000 nM

Cc1cc(C(=O)c2ccc3oc(CCN4CCC[C@H]4C)cc3c2)ccc1F [Example 74, (4-fluoro-3-methylphenyl)(2-{2-[(2R)-2-methyl-1-pyrrolidinyl]ethyl}-1-benzofuran-5-yl)methanone]
Ki [1]: 3.5 nM

N#Cc1ccc(-c2ccc3oc(CCN4CCC[C@H]4CO)cc3c2)cc1 [Example 10, 4-(2-{2-[(2S)-2-(hydroxymethyl)pyrrolidinyl]ethyl}-1-benzofuran-5-yl)benzonitrile]
Ki [1]: 22.9 nM

Where two headings read alike, the source gives them in different places.
